Laboratory results taken from ChEMBL document CHEMBL1140824, “Hepatoselectivity of statins: design and synthesis of 4-sulfamoyl pyrroles as HMG-CoA reductase inhibitors” (Bioorg Med Chem Lett, 2008).

Legend:
[1] = molecular target: T1, 3-hydroxy-3-methylglutaryl-coenzyme A reductase (Rattus norvegicus, UniProt P51639); assay: Inhibition of rat microsomal HMGCoA reductase
T1 sequence (P51639 whole entry): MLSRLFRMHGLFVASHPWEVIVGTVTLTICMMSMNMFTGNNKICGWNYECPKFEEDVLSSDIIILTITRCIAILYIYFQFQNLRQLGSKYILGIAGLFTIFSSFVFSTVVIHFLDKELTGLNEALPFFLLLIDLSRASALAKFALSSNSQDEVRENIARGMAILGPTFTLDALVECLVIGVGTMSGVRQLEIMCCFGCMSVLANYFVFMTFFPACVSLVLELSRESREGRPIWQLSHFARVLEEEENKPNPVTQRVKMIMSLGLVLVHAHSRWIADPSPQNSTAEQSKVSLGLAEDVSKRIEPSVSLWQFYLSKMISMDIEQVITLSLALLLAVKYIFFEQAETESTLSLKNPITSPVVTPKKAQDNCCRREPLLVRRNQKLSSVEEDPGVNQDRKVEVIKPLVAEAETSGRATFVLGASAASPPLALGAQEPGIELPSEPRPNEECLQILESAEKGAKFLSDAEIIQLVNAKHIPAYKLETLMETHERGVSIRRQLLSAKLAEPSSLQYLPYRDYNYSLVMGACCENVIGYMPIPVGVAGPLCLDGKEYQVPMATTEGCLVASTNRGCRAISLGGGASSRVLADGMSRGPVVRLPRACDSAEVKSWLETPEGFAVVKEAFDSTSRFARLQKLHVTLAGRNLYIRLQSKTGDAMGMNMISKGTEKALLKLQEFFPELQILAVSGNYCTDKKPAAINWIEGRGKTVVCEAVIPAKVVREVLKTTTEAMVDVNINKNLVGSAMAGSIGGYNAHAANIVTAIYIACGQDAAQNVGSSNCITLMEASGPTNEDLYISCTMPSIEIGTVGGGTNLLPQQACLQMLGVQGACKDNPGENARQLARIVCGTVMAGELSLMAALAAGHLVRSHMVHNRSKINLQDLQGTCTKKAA

Hepatocyte = assay: Selectivity, ratio of IC50 for rat L6 myocyte to IC50 for rat hepatocyte; type: functional

IC50 [1]: 3.8 nM
Structure (SMILES): CC(C)c1c(C(=O)Nc2ccccc2)c(-c2ccccc2)c(-c2ccc(F)cc2)n1CC[C@@H](O)C[C@@H](O)CC(=O)O [ATORVASTATIN]
Ratio IC50 (Hepatocyte): 144
